Experimental data taken from US10364256B2 (GlaxoSmithKline Intellectual Property Development Limited, priority 2015, dated 2019).

Protein sequences, listed by entry. Tags and fused reporters are not part of them. Residues count along the entry.
UniProt Q14145, whole entry: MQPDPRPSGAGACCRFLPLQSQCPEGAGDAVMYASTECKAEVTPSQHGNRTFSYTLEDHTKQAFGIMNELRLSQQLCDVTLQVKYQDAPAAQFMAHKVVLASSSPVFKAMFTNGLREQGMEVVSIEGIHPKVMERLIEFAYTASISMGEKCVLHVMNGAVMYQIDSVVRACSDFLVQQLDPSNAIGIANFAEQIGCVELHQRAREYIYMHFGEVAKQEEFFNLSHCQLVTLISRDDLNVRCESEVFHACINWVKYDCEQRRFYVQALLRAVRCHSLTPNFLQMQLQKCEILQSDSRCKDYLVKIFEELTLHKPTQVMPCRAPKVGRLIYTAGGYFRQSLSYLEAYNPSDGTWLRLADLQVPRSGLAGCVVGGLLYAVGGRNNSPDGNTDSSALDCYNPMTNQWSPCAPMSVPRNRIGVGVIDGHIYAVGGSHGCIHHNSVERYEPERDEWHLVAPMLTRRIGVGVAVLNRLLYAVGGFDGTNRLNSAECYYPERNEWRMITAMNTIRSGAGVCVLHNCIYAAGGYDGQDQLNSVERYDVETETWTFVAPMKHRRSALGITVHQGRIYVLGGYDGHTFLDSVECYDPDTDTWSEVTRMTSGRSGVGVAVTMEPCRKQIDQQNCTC
UniProt Q14145, 321-609 limits assumed: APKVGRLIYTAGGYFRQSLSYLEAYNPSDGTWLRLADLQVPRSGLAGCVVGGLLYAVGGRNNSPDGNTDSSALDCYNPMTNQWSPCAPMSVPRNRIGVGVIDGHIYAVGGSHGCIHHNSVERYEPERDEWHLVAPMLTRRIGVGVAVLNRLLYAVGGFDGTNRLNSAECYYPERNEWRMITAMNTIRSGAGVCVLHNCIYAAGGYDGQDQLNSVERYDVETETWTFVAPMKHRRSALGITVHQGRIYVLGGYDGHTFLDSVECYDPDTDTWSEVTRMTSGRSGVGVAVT

Assays:
[1] = target: Keap1 Kelch domain (321-609) / TAMRA-labeled 16mer NRF2 peptide (ETGE motif) (Homo sapiens, UniProt Q14145); test: NRF2-Keap1 FP Assay (Keap1 Kelch fluorescence polarization); type: binding; settings: read-out: IC50 (Keap1/Nrf2 FP assay); 20 nM Keap1 (321-609), 8 nM Tamra labeled peptide
Source text: One model for the NRF2-Keap1 interaction is through two binding sites in the Neh2 domain on NRF2. The two sites are referred to as the DLG binding motif (latch domain, uM affinity) and the ETGE binding motif (hinge domain, nM affinity). The Keap1 protein consists of an N-terminal region (NTR), a broad complex, tramtrack, and brick a′ brac domain (BTB), an intervening region (IVR), a double glycine repeat domain (DGR or Kelch), and a C-terminal region. The DLG and ETGE motifs of NRF2's Neh2 domain bind to the Kelch domain of Keap1 at different affinities. In the Keap1 Kelch fluorescence polarization (FP) assay, a TAMRA-labeled 16mer peptide (AFFAQLQLDEETGEFL) containing the ETGE motif of NRF2 and the Kelch domain (321-609) of Keap1 is used. […]
100 nl of 100× compound dose response curves (serial 3-fold dilutions) in DMSO are stamped using an Echo liquid handling system (Labcyte) into 384-well low volume black assay plates (Greiner, #784076), with DMSO in columns 6 and 18. […] The plates are spun at 500 rpm for 1 min, incubated for 1 hr at room temperature, and read on an Analyst GT (Molecular Devices) equipped with excitation (530/25 nm) and emission (580/10 nm) filters designed for Tamra probes. […] Fluorescence measurements, represented as mP, are used in the transformation of the data. […]

[2] = system: NQO1 specific enzyme activity in BEAS-2B cells (marker for NRF2 activation); test: BEAS-2B NQO1 MTT Assay; type: cell-based; settings: read-out: EC50 (NQO1 specific enzyme activity induction), compound incubated 48 hours
Source text: BEAS-2B NQO1 MTT Assay NAD(P)H:quinone oxidoreductase 1 (NQO1), also called DT diaphorase, is a homodimeric FAD-containing enzyme that catalyzes obligatory NAD(P)H-dependent two-electron reductions of quinones and protects cells against the toxic and neoplastic effects of free radicals and reactive oxygen species arising from one-electron reductions. The transcription of NQO1 is finely regulated by NRF2, and thus NQO1 activity is a good marker for NRF2 activation. On day one, frozen BEAS-2B cells (ATCC) are thawed in a water bath, counted, and re-suspended at a concentration of 250,000 cells/mL. Fifty microliters of cells are plated in 384 well black clear-bottomed plates. Plates are incubated at 37° C., 5% CO2 overnight. On day two, plates are centrifuged and 50 nL of compound or controls are added to the cells. Plates are then incubated at 37° C., 5% CO2 for 48 hours. […] Fifty microliters of MTT cocktail is added to each well, plate is centrifuged, and analyzed on an Envision plate reader (Perkin Elmer) using Absorbance 570 nm label for 30 minutes. Product formation is measured kinetically and the pEC50 of NQO1 specific activity induction is calculated by plotting the change in absorbance (Delta OD/min) versus the log of compound concentration followed by 3-parameter fitting. pEC50 is the negative log of the EC50.

[3] = target: full length Keap1 protein / full length NRF2 protein (Homo sapiens, UniProt Q14145); test: NRF2-Keap1 TR-FRET Assay; settings: read-out: IC50 (Nrf2/Keap1 TR-FRET assay); 25 nM Keap1-FlagHis and 50 nM biotin-NRF2 added
Source text: In the NRF2-Keap1 TR-FRET (time-resolved fluorescence resonance energy transfer) assay, full length NRF2 protein and full length Keap1 protein (Keap1 exists a dimer) are used. The assay detects the ability of compound to displace the binding of FlagHis-tagged Keap1 with biotinylated, Avi-tagged NRF2 protein. Biotin-NRF2 binds to streptavidin-europium (a component of the detection mix) and Keap1-FlagHis is recognized by anti-Flag APC (allophycocyanin) antibody (also a component of the detection mix). If binding occurs between the two proteins, there will be an energy transfer from the Eu+3 (donor) at 615 nm to the APC (acceptor) at 665 nm. […]
One hundred nanoliters of 100× compound dose response curves (serial 3-fold dilutions) in DMSO are stamped using an Echo liquid handling system (Labcyte) into 384-well, low volume, black assay plates (Greiner, #784076), with DMSO in columns 6 and 18. […] Plates are spun at 500 rpm for 1 minute, incubated for 1 hour at RT, and read on an Envision plate reader using a 320 nm excitation filter and 615 nm and 665 nm emission filters. Compound response (% inhibition) and potency (pIC50) are calculated based on the ratio of the two emissions (665 nm/615 nm) and then the transformed data is normalized against controls in the assay (control 1=1% DMSO in the presence of NRF2 and Keap1 protein and control 2=1% DMSO in the absence of protein). […]

## CCCC1CCCCN1C(=O)c1cccc(-c2cccc(-n3ncc(C(=O)O)c3C(F)(F)F)c2)c1 (stereo not drawn)
[1]
  pIC50: 7.00 to 8.00
[2]
  pEC50: 5.00 to 6.00
[3]
  pIC50: 6.00 to 7.00

pEC50, pIC50: −log10 of the molar value.
